# Measured affinities in a library of Ab-95 light chain variants

All variants were tested on one target, the spike HR2 peptide PDVDLGDISGINAS (SARS-CoV-2).

Parent: Ab-95, a human scFv built as VH, three GGGGS repeats, VL. Only the CDRs of the light chain vary.
VH: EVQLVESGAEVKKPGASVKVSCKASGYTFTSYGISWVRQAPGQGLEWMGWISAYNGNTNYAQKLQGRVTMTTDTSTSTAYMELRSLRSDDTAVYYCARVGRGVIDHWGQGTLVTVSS
VL: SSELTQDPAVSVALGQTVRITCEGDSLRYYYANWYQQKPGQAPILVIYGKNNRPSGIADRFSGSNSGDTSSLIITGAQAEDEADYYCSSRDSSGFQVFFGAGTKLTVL

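Library AAYL52 holds single substitutions and randomly drawn double and triple substitutions in the CDRs. Affinity was read by AlphaSeq, a pooled yeast mating assay with surface-displayed partners. The frequency of each diploid, read from paired DNA barcodes, reflects how well the two displayed proteins bind. Scores were corrected for input abundance and mapped to Kd with protein pairs of known affinity run in the same pool. Mating was done three times.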

Variants are written as CDR1, CDR2 and CDR3 of the light chain (limits as in the source). Parent: EGDSLRYYYAN, GKNNRPS, SSRDSSGFQVF.
All variants listed here change F95 of the VL, counted from its first residue.
The Kd shown is the geometric mean over detected replicates; a lower Kd is a better binder.
An entry "nd" has no value in the source: the pair was not observed among the diploids in any replicate. This suggests poor binding but is not conclusive.
Background: pairings of library AAYL52 with three empty control strains gave a value in 28% of cases (median 8.2 µM, 5th percentile 800 nM). Values in that range, when seen in few replicates, are hard to tell from nonspecific mating. Also given: how often the same scFv was detected with the empty control strains.
Parent in this assay: reference entry 200 nM, copy in this library 180 nM.

* EGDMLREYYAN | GKNNRPS | SSRDSSGRQVF: 7.3 µM (3 of 3 replicates; controls 4 of 9)
* EGDSLRYYYAN | GKNMRPS | SSRASSGKQVF: 620 nM (3 of 3 replicates; controls 3 of 9)
* EGDSLRYYVAN | GKNNRPS | SSRDWSGLQVF: 1.9 µM (3 of 3 replicates; controls 4 of 9)
* EGDSLRYRYAN | GKNNRPS | SSRDSSGHQVF: 84 nM (3 of 3 replicates; controls 6 of 9)
* EFDSLRYYYAN | GKNNRPS | SSRVSSGSQVF: nd (0 of 3 replicates; controls 1 of 9)
* EGDSRRYYYAN | GKNNRPS | SSRDSSGMQSF: 4.1 µM (1 of 3 replicates; controls 0 of 9)
* EGDSLRYYYAN | GKNNRPS | ISNDSSGSQVF: 21 µM (2 of 3 replicates; controls 2 of 9)
* QGDPLRYYYAN | GKNNRPS | SSRDSSGNQVF: 770 nM (3 of 3 replicates; controls 3 of 9)
* EGDSFRVYYAN | GKNNRPS | SSRDSSGTQVF: 1.7 µM (1 of 3 replicates; controls 1 of 9)
* EGDSKRYYYAN | GRNNRPS | SSRDSSGQQVF: 54 µM (3 of 3 replicates; controls 1 of 9)
* EGDCLRYYYMN | GKNNRPS | SSRDSSGTQVF: 750 nM (3 of 3 replicates; controls 3 of 9)
* EGDSLRYYYAI | GKNNRPS | SSRDSSGSQMF: 8.8 µM (1 of 3 replicates; controls 2 of 9)
* ELDSLRYYYAN | GKNNRPS | SSRDQSGMQVF: 1.4 µM (2 of 3 replicates; controls 0 of 9)
* EGDSLRYYYAN | GKNNRPS | SSRDSSGSQVF: 350 nM (3 of 3 replicates; controls 5 of 9)
* EGDSLRYYYAN | GKNNRPQ | SSRDSSGLQVF: 490 nM (3 of 3 replicates; controls 4 of 9)
* EGDSLWYYYAN | GKNGRPS | SSRDSSGRQVF: 680 nM (3 of 3 replicates; controls 5 of 9)
* EGDSLRMYYAN | GKNNRPS | SSRDRSGIQVF: 16 µM (2 of 3 replicates; controls 3 of 9)
* ETDSLRYYYAN | GKYNRPS | SSRDSSGYQVF: 12 µM (2 of 3 replicates; controls 2 of 9)
* EHDSLRYYYAN | GKNNRPS | SMRDSSGWQVF: nd (0 of 3 replicates; controls 2 of 9)
* EGDSLRYYYAN | GKNNRPS | ESRDSSMRQVF: 370 nM (3 of 3 replicates; controls 4 of 9)
* EGDSLRYYYAN | GKNNRPS | SSRDSSGTQVF: 380 nM (3 of 3 replicates; controls 1 of 9)
* EGDVRRYYYAN | GKNNRPS | SSRDSSGGQVF: 3.2 µM (2 of 3 replicates; controls 5 of 9)
* EGASLRYYYAN | GKNNRPS | SSEDSSGEQVF: nd (0 of 3 replicates; controls 0 of 9)
* QGISLRYYYAN | GKNNRPS | SSRDSSGMQVF: 470 nM (3 of 3 replicates; controls 4 of 9)
* EGDSLCYYYAN | GKNNGPS | SSRDSSGIQVF: 97 nM (1 of 3 replicates; controls 0 of 9)
* IGDSLRYYYAN | GKNNRPS | SSRDSSGMQVF: 2.9 µM (3 of 3 replicates; controls 1 of 9)
* EGDSLSYYYAN | GKNNRPS | SSRDSWGPQVF: 630 nM (3 of 3 replicates; controls 4 of 9)
* EGDGLRYYYAN | GKNNRPS | SSRDSEGGQVF: nd (0 of 3 replicates; controls 0 of 9)
* EGDLLRYYYAN | GKNNRPS | SSRDSSGSQVF: 39 µM (2 of 3 replicates; controls 3 of 9)
* EGDSLRYYYAG | GKNNRPY | SSRDSSGAQVF: 300 nM (3 of 3 replicates; controls 5 of 9)
* EYDSLRYYYAN | GKNNRPS | SSRDSSGPQVF: 5.3 µM (3 of 3 replicates; controls 5 of 9)
* EGDSLRYYYAN | GKNNRPS | SSTDSSGWQVF: 110 nM (3 of 3 replicates; controls 1 of 9)
* EGDSLRYYYAN | GKNNWPS | SSRDSSGGQVL: nd (0 of 3 replicates; controls 5 of 9)
* SGDSLRYYYAN | GKNERPS | SSRDSSGYQVF: 44 nM (3 of 3 replicates; controls 3 of 9)
* EGDSLRYYYAN | GKNNRPS | SSRDSSGSQVC: 11 µM (1 of 3 replicates; controls 2 of 9)
* EGDSLRYYYAN | GKNSRMS | SSRDSSGKQVF: 1.5 µM (3 of 3 replicates; controls 6 of 9)
* EGDSLRYYYAN | GKNNRPS | SSRWSSGAQVW: 500 nM (3 of 3 replicates; controls 0 of 9)
* EGDSLRYYYAN | YKNNRWS | SSRDSSGQQVF: 270 µM (1 of 3 replicates; controls 0 of 9)
* EGDSLRYYYAN | GKNNRPS | GSRDSSGYQVE: 250 nM (3 of 3 replicates; controls 0 of 9)
* EGDSLEYYYAN | GKNNRPS | SSRSSSGIQVF: 29 µM (3 of 3 replicates; controls 0 of 9)
* EGDSDRYYYAN | GKNNRPS | SSRDSSGDNVF: 5.7 µM (2 of 3 replicates; controls 4 of 9)
* EGDSLRYYYAN | GKNNSPS | SSRDSSGRQVY: 270 nM (3 of 3 replicates; controls 4 of 9)
* EGDSLRYYGAN | GKNNRPS | SSRDSSGKQYF: 300 nM (3 of 3 replicates; controls 2 of 9)
* GGDSLRYYYAN | GKNNRPS | KSRDSSGWQVF: 1.1 µM (1 of 3 replicates; controls 4 of 9)
* EGDSLRYYYAN | GKNNRVS | SSQDSSGKQVF: 1.0 µM (3 of 3 replicates; controls 2 of 9)
* EGDSLRMYYAN | GKNNRPS | SVRDSSGVQVF: 81 µM (1 of 3 replicates; controls 1 of 9)
* EGDSLRYYYAN | GKNNRPS | SSRDSSYYQVH: 1.8 µM (3 of 3 replicates; controls 1 of 9)
* EGDSLRYNYAN | GKNNRPV | SSRDSSGMQVF: 9.0 nM (3 of 3 replicates; controls 4 of 9)
* EGDSLKYYYAN | GKNNRPS | SSRDSDGYQVF: 290 nM (1 of 3 replicates; controls 0 of 9)

The opening 4 entries, copied out:

CDR-L1,CDR-L2,CDR-L3,Kd,detected,signal with controls
EGDMLREYYAN,GKNNRPS,SSRDSSGRQVF,7.3 µM,3/3,4/9
EGDSLRYYYAN,GKNMRPS,SSRASSGKQVF,620 nM,3/3,3/9
EGDSLRYYVAN,GKNNRPS,SSRDWSGLQVF,1.9 µM,3/3,4/9
EGDSLRYRYAN,GKNNRPS,SSRDSSGHQVF,84 nM,3/3,6/9

Data: MIT Lincoln Laboratory AlphaSeq set, Engelhart et al. 2022, doi:10.1038/s41597-022-01779-4, as distributed in FLAb.